Assay results reported in ChEMBL document CHEMBL3886202, “Substituted aminoquinazolines useful as kinases inhibitors” (2016).

Protein sequences, listed by entry. Tags and fused reporters are not part of them.
UniProt P00533, whole entry: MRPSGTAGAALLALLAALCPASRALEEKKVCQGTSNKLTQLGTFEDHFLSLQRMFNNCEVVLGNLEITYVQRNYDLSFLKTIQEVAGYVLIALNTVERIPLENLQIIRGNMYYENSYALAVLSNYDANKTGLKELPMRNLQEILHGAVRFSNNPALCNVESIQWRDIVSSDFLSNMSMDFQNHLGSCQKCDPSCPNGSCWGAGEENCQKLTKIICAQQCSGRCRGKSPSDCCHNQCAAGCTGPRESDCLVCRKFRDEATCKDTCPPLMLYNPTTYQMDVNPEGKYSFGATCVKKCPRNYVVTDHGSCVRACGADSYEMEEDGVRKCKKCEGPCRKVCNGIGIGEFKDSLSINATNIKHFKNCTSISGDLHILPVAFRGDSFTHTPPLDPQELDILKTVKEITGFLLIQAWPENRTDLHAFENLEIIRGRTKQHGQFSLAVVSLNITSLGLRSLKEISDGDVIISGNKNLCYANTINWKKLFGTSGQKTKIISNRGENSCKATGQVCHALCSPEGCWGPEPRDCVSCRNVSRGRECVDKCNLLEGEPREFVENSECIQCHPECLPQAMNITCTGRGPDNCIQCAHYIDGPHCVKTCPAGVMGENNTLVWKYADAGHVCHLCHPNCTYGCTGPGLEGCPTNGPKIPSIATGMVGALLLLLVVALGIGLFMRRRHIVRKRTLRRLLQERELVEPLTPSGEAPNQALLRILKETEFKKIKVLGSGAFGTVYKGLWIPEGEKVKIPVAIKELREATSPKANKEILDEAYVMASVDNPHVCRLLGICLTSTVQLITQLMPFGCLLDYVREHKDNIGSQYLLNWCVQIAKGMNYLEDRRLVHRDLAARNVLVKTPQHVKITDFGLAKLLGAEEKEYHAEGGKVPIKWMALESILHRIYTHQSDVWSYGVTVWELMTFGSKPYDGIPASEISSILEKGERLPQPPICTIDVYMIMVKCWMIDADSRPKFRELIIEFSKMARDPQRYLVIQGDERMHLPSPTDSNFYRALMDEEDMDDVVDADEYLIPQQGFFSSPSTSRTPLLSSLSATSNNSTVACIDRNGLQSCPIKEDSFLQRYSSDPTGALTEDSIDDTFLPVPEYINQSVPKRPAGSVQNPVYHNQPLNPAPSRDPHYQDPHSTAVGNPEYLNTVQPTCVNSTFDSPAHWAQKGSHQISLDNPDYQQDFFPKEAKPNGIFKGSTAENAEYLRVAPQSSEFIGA

Target: Epidermal growth factor receptor (Homo sapiens, UniProt P00533)
Assay: Enzyme Assay: BT474 Cell Line: 1. 5×10^3 cells per well in 100 μl of medium were seeded in 96-well plate, here the medium contained 5% FBS2. 24 hours later, 100 μl fresh medium was added with various concentrations of compounds into each well, while the medium here was free of FBS.3. After the cells were treated with compounds for 72 hours, 20 μl MTT (5 mg/ml) was added into each well, and then the assay plate was incubated at 37° C. for 4 more hours.4. The assay plate was centrifuged at 800 g for 10 min. The medium was aspirated, 150 μl DMSO was added into each well. The plate was gently shaken for 10 min.5. The absorbance at 570 nm was measured on the plate reader.6. IR %=(WC−WT)/WC×100%.

For `C#Cc1cccc(Nc2ncnc3cc(O[C@H]4CCOC4)c(NC(=O)/C=C/CN(CC)CC)cc23)c1`, the IC50 was < 100 nM.
